Patent US12478634B2, “Compositions and methods for treating muscular dystrophy and other disorders” (The Charlotte Mecklenburg Hospital Authority, priority 2016, dated 2025)

System: C2C12 myotubes
Settings: differentiated C2C12 myotubes, 5 mM, 5 days

^13C5-ribitol [^13C-ribitol]
levels of ^13C-ribitol-5P, CDP-^13C-ribitol and ^13C-ribitol in cells: clearly elevated levels
